One block for each molecule: values may come before it.
Legend:
[1] = molecular target: T1, Cyclin-dependent kinase 1/cyclin B (Homo sapiens) (UniProt P06493+P14635+Q8WWL7+O95067); details: Asteroidea
[2] = molecular target: T1, Cyclin-dependent kinase 1/cyclin B (Homo sapiens); assay: Inhibition of Cyclin-dependent kinase 1-cyclin B; assay type: protein-complex assay
[3] = molecular target: Cyclin-dependent kinase 4/cyclin D (Homo sapiens) (UniProt P11802+P24385+P30281+P30279); assay: Inhibition of Cyclin-dependent kinase 4-cyclin D; assay type: protein-complex assay
[4] = molecular target: Cyclin-dependent kinase 2/cyclin E (Homo sapiens) (UniProt P24864+P24941+O96020); details: Asteroidea

Protein sequences, listed by entry. Tags and fused reporters are not part of them. Lines headed by an entry give the natural chain unless they say otherwise; changes in a name come on top.
UniProt P06493, whole entry, looked up: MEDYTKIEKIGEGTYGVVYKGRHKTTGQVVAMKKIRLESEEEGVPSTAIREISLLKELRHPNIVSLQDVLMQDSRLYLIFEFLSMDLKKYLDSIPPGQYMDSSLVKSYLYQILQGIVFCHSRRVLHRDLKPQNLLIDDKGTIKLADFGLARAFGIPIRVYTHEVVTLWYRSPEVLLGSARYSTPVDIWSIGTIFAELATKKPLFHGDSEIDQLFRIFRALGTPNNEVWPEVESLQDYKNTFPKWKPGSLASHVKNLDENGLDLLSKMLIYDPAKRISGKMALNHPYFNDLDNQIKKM
UniProt P14635, whole entry, looked up: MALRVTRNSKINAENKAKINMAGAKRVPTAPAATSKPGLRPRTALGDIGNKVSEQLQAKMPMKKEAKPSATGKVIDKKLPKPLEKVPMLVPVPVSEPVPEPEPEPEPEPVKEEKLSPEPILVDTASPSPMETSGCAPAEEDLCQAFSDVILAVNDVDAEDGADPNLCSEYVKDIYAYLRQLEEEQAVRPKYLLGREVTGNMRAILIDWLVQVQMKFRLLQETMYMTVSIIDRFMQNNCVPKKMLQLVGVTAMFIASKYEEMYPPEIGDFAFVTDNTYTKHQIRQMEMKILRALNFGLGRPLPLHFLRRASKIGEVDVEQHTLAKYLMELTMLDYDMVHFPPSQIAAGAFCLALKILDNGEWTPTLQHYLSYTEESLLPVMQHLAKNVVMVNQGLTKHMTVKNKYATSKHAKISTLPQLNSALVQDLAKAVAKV
UniProt Q8WWL7, whole entry, looked up: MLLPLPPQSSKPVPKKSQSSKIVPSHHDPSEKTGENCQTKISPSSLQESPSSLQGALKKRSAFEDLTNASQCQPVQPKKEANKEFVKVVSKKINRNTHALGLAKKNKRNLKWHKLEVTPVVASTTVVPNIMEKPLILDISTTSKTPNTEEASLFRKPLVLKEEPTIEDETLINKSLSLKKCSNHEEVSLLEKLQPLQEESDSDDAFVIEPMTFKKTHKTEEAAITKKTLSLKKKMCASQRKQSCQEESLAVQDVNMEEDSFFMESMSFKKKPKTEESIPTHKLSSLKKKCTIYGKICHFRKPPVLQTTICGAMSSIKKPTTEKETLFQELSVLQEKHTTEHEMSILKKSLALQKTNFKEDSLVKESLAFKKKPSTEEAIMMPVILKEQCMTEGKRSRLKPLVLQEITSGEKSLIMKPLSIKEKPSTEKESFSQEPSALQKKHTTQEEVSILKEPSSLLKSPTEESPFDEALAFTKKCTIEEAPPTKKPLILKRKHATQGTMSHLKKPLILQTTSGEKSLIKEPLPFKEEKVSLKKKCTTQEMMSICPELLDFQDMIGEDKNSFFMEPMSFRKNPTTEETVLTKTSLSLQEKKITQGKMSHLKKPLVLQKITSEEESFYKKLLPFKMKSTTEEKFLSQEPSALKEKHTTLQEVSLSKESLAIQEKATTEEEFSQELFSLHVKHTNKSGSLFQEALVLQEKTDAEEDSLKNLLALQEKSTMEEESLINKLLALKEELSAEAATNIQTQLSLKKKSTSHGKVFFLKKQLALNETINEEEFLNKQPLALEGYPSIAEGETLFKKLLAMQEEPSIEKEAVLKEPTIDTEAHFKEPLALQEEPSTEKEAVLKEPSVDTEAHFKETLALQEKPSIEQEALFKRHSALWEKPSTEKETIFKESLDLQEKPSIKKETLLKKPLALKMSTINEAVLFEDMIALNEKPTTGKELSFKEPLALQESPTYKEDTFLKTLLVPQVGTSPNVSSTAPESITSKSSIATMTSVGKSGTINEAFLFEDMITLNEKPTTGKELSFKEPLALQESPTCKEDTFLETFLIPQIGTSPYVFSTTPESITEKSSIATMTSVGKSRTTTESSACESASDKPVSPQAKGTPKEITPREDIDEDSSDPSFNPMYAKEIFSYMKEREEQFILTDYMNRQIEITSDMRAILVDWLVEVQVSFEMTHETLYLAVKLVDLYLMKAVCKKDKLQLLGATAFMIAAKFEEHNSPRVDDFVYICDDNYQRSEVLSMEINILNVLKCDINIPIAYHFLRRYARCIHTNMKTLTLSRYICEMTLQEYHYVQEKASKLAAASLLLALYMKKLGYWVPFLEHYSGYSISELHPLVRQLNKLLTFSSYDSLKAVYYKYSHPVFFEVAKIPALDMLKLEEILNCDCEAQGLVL
UniProt O95067, whole entry, looked up: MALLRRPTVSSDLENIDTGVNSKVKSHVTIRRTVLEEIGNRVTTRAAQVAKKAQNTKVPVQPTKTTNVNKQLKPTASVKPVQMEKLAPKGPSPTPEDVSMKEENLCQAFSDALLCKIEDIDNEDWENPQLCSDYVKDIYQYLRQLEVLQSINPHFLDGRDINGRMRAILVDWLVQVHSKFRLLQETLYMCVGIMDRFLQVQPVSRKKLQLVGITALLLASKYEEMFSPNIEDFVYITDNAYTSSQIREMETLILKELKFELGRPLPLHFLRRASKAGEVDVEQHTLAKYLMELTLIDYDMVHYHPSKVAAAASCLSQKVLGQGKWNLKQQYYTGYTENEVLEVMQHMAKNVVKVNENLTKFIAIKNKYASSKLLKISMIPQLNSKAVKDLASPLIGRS
UniProt P11802: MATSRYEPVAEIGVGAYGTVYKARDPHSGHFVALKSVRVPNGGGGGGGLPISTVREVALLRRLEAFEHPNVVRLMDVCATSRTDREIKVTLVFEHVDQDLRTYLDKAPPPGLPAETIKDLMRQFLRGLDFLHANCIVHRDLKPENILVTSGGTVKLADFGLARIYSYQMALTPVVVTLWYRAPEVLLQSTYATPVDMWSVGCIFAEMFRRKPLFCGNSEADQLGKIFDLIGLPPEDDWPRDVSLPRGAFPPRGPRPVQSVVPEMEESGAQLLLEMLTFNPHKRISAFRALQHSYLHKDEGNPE
UniProt P24385, whole entry, looked up: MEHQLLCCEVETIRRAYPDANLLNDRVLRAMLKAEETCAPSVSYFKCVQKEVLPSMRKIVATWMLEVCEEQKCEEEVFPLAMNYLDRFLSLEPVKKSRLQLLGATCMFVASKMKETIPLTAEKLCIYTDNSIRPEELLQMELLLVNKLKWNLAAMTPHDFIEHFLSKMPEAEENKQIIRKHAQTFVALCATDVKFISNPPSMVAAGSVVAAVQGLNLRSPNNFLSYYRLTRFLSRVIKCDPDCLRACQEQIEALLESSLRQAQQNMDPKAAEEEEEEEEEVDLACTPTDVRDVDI
UniProt P30281: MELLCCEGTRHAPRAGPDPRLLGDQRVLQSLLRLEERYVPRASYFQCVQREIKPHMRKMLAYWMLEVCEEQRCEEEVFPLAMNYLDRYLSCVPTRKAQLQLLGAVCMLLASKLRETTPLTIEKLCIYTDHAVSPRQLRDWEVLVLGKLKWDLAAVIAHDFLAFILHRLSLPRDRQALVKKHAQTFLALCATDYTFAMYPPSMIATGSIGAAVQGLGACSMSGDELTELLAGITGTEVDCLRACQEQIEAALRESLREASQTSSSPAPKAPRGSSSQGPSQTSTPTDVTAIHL
UniProt P30279, whole entry, looked up: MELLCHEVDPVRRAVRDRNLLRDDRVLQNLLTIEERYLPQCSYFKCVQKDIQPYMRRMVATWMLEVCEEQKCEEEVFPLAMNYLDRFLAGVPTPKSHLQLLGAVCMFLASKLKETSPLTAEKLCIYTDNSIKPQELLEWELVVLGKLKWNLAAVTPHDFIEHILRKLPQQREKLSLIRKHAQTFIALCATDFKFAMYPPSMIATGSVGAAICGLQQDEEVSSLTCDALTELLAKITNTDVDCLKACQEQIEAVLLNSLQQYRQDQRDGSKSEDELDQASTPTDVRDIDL
UniProt P24864, whole entry, looked up: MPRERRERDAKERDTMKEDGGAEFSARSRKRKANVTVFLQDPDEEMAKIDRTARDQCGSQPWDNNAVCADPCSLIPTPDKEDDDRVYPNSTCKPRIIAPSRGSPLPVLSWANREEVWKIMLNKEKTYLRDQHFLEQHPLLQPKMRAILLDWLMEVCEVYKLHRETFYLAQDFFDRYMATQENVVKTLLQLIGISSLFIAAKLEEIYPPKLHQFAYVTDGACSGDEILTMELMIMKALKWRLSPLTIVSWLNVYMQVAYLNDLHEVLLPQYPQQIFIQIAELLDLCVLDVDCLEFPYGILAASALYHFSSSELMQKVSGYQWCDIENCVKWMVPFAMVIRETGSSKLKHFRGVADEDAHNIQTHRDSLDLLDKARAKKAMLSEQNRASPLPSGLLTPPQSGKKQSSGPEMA
UniProt O96020, whole entry, looked up: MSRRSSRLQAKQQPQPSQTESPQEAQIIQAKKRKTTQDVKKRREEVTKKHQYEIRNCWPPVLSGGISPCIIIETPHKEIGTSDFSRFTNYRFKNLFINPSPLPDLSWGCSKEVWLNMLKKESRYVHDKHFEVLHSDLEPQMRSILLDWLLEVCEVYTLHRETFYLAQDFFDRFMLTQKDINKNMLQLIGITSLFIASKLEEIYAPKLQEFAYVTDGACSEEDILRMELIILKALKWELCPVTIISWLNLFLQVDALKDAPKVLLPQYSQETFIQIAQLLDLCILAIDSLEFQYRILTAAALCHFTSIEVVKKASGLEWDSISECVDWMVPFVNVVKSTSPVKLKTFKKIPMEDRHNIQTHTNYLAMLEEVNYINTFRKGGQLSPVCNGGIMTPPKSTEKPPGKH

ID50 [1]: 7000 nM
Compound: O=C1Cc2c([nH]c3ccccc23)-c2ccccc2N1

ID50 [2]: 400 nM
ID50 [3]: 400 nM
Compound: CN1CC[C@H](c2c(O)cc(O)c3c(=O)cc(-c4ccccc4Cl)oc23)[C@H](O)C1

ID50 [4]: 9 nM
Compound: CC(C)[C@H](CO)Nc1nc(Nc2ccc(C(=O)O)c(Cl)c2)c2ncn(C(C)C)c2n1
